Screening results (PubChem)
DT40 TDP1 CPT – growth inhibition of DT40 Tdp1-/-;hTDP1 cells with camptothecin (screen for TDP1 inhibitors); chicken DT40 Tdp1-/-;hTDP1 cells + 20 nM CPT, ATP luminescence, 48 h; hit rate 12% among 420,000; Potency, µM (titrated, usually from 46.2 µM), for the others: at the highest dose activity change, negative = growth inhibition, actives largely listed as inhibitors; note: potency is the fitted concentration of half-maximal effect; % is set by controls: 0 for no effect and ±100 for the full control effect; nearly all actives have a fitted effect of over 55% in size
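Chicken DT40 Tdp1-/- cells stably complemented with human TDP1 were seeded at 400 cells/well in medium containing 20 nM camptothecin, exposed to pin-transferred compounds, and grown at 37 °C for at least 48 hr. Viability was read as ATP luminescence.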
uPA surface inh – cell surface uPA generation inhibition; cell surface uPA generation assay, qHTS; Potency, µM (top dose mostly 38.3 µM), without a hit: at the top dose activity change, negative = inhibition, hits mostly inhibitors; AID 540303; hit rate 0.31% among 330,000; active = well fitted inhibition curve with a large enough effect; inconclusive = small, poorly fitted or top-dose-only effect; inactive = no such curve, though single readings can be large or run the other way; tested in mouse RAW 264.7 cells; note: potency is the fitted concentration of half-maximal effect; % is set by controls: 0 for no effect and ±100 for the full control effect; nearly all actives have a fitted effect of over 55% in size
miR-21 reporter – miR-21 reporter, rising signal. 340,000 tested, under 10 active. Potency, µM (highest dose often 38.3 µM), for the others: at the highest dose reporter change, positive = more light. HeLa miR-21 FLuc reporter, luciferase, 48 h. AID 2288; active = well fitted rising curve with a large enough effect; inconclusive = small, poorly fitted or top-dose-only effect; inactive = no such curve, though single readings can be large or run the other way;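 further: % of control where 0% means no effect; miR-21 action dims this reporter so a rising signal means less miR-21 action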
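Compounds were titrated across several concentrations (up to approximately 40 uM) and incubated 48 hours with HeLa miR-21-FLuc reporter cells (miR-21 target sequence downstream of FLuc, endogenous miR-21). Readout was firefly luciferase luminescence after lytic detection reagent.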
TDP1 block – inhibitors of human tyrosyl-DNA phosphodiesterase TDP1; recombinant TDP1, AlphaScreen DNA substrate cleavage; Q9NUW8; Potency, µM (top dose mostly 130 µM), inactives show at the highest dose activity change, negative = inhibition, usual class: inhibitors; hit rate 0.28% among 350,000; note: potency is the fitted concentration of half-maximal effect; % is set by controls: 0 for no effect and ±100 for the full control effect; nearly all actives have a fitted effect of over 40% in size
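Signal: AlphaScreen proximity between streptavidin donor and anti-FITC acceptor beads on intact substrate. Reaction: Tdp1 1 nM, substrate 15 nM final, 5 min RT after 15 min compound preincubation.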
TDP1 cell noCPT – qHTS for Inhibitors of human tyrosyl-DNA phosphodiesterase 1 (TDP1): qHTS in cells in absence of CPT | hit rate 15% among 420,000 | DT40 Tdp1-/- hTDP1 cells, no CPT, ATP luminescence, 48 h | Potency, µM (top dose mostly 46.2 µM), without a hit: at the highest dose activity change, negative = growth inhibition, hits mostly inhibitors | AID 686978, 2013; note: potency is the fitted concentration of half-maximal effect; % is set by controls: 0 for no effect and ±100 for the full control effect; nearly all actives have a fitted effect of over 55% in size
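Chicken DT40 Tdp1-/- cells complemented with human TDP1, screened without camptothecin (DMSO vehicle only), 400 cells/well. Compounds pin-transferred, cells incubated at 37 °C for at least 48 hr. Growth read as ATP-dependent luminescence (CellTiter-Glo, 30 min at RT).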
Numbers without * were called inactive; ? = inconclusive; . = no result given; [ ] = remark or other dose. Rows were chosen to be rich in hits. Some 16% of all compounds tested hit in one or more screens of this group. Unless noted, calls come from the whole dose curve; as a rule, active = well fitted curve in the direction sought with a large enough effect; inconclusive = small, poorly fitted or top-dose-only effect, or another doubt; inactive = no such curve, though single readings can be large; an effect the other way counts as inactive or inconclusive.

SMILES	DT40 TDP1 CPT	uPA surface inh	miR-21 reporter	TDP1 block	TDP1 cell noCPT
Cc1ccc([C@H]2C[C@H](O)[C@@H](n3cc(C4CC4)nn3)CN2C(=O)c2cccs2)cc1	-21%	.	.	.	-16%
CCCCCC(=O)N1C[C@@H](O)[C@H](n2cc(-c3ccc(F)cc3)nn2)C[C@@H]1c1ccccc1	23µM*	.	.	.	10µM*
CCCCCC(=O)N1C[C@@H](n2cc(-c3ccc(F)cc3)nn2)[C@H](O)C[C@@H]1c1ccc(C)cc1	13µM*	.	.	.	8.2µM*
CCCCCC(=O)N1C[C@H](n2cc(C3CC3)nn2)[C@@H](O)C[C@@H]1c1ccc(OC)cc1	5%	.	.	.	-10%
O=C(COc1ccc([N+](=O)[O-])cc1)NNC(=O)c1cccs1	-1%	2%	0%	1%	-15%
COc1ccc(CN(C)CC(=O)NC(=O)NC2CCCCC2)cc1	?	1%	.	1%	?
CCCCCC(=O)N1C[C@@H](O)[C@H](n2cc(C3CC3)nn2)C[C@@H]1c1ccc(C)cc1	-20%	.	.	.	-27%
CCCCCC(=O)N1C[C@@H](O)[C@H](n2cc(-c3ccc(F)cc3)nn2)C[C@@H]1c1ccc(C)cc1	?	.	.	.	18µM*
COc1ccc([C@H]2C[C@H](n3cc(-c4ccc(F)cc4)nn3)[C@@H](O)CN2C(=O)C2CCCCC2)cc1	?	.	.	.	18µM*
COc1ccc(-c2nn(-c3ccccc3)cc2C(=O)n2nnc3ccccc32)cc1	21µM*	0%	-6%	2%	-44%
COC(=O)c1cn(-c2ccccc2)nc1-c1ccc(OC)cc1	-2%	11%	-17%	2%	?
COc1c(C)cccc1C(=O)Nc1ccc(N2CCN(S(C)(=O)=O)CC2)cc1	?	-1%	-44%	0%	?
COC(=O)C(NC(C)=O)(Nc1ccc(Br)cn1)C(F)(F)F (centres undefined)	-2%	7%	0%	-2%	-16%
Cc1nc2ccc(NS(=O)(=O)c3ccc4c(c3)OCCO4)cc2s1	1.8µM*	-9%	19%	3%	1.5µM*
Cc1nc2ccc(NS(=O)(=O)c3ccc(F)c(F)c3)cc2s1	18µM*	-25%	.	0%	?
O=S(=O)(Nc1cccc(-c2ccc(N3CCOCC3)nn2)c1)c1cc(Cl)ccc1Cl	-4%	-6%	.	3%[0.505 µM]	?
O=S(=O)(Nc1ccc(N2CCOCC2)cc1)c1cc(Cl)ccc1Cl	-14%	.	-12%	.	12µM*
Cc1nc2ccc(NC(=O)CCS(=O)(=O)c3ccc(Cl)cc3)cc2s1	12µM*	-8%	7%	4%	15µM*
CCN(C(=O)COC(=O)c1cc(S(=O)(=O)N2CCOCC2)ccc1F)C1CCS(=O)(=O)C1 (centres undefined)	10%	9%	.	.	6%
NS(=O)(=O)c1ccc(CCNC(=O)CSCC(=O)Nc2ccc(Cl)cc2)cc1	-11%	-4%	.	1%	3%
Cc1nc2ccc(S(=O)(=O)Nc3ccc(-c4nc5cccnc5s4)cc3)cc2s1	-1%	13%	-55%	7%	-23%
Cc1nc2ccc([N+](=O)[O-])cc2s1	18%	-1%	-1%	1%	16%
Cc1nc2ccc(NS(=O)(=O)c3cccc([N+](=O)[O-])c3)cc2s1	18µM*	-6%	.	4%	15µM*
Cc1c(NS(=O)(=O)c2ccc3c(c2)OCCO3)cccc1-c1nc2cccnc2s1	?	6%	7%	7%	12µM*
Cc1ccc(S(=O)(=O)Nc2ccc3nc(N)sc3c2)cc1	13µM*	.	4%	4%	12µM*
Cc1nc2ccc(NS(=O)(=O)c3ccc(Br)cc3)cc2s1	13µM*	-17%	.	0%	5.2µM*
CC(=O)CC(=O)NC(=NC1CCCCC1)Nc1nc(C)cc(C)n1	?	-2%	0%	6%	?
CC(C)(C)OC(=O)Nc1ccccc1-n1nnnc1C(C(=O)c1ccc(F)cc1)N1CCOCC1 (centres undefined)	-27%	.	.	.	-25%
O=S(=O)(Nc1ccc(N2CCCCC2)cc1)c1ccc(F)c(F)c1	?	0%	-5%	8%	15µM*
O=C(O)c1cc(S(=O)(=O)Nc2ccc(N3CCCCC3)cc2)ccc1Cl	2%	-1%	6%	0%	-3%
CC1(Oc2ccc(F)cc2)CCN(Cc2ccccc2OC(F)F)C1 (centres undefined)	-18%	.	.	.	-22%
COCCNC(=O)C1(C)CCCN(Cc2ccc(Oc3ccccc3)cc2)C1 (centres undefined)	?	.	.	.	21µM*
COCCNC(=O)C1(C)CCCN(Cc2csc(-c3ccc(Cl)cc3)n2)C1 (centres undefined)	12µM*	.	.	.	13µM*
COCCNC(=O)C1(C)CCCN(Cc2ccc(-n3ccnc3)cc2)C1 (centres undefined)	2%	.	.	.	0%
COCCNC(=O)C1(C)CCCN(Cc2cc(C)ccc2C)C1 (centres undefined)	7%	.	.	.	-7%
CC(C)N1CCCC(C)(C(=O)Nc2cccc(Oc3ccccc3)c2)C1 (centres undefined)	?	.	.	.	13µM*
COc1ccc(OC2(C)CCN(Cc3ccc(-c4ccccc4)o3)C2)cc1 (centres undefined)	21µM*	.	.	.	?
COc1ccccc1CNC(=O)COC(=O)C12CC3CC(CC(O)(C3)C1)C2	5%	6%	.	-2%	-3%
CCCNC(=O)C1(C)CCCN(Cc2cccn2C)C1 (centres undefined)	-30%	.	.	.	1%
OC1CCN(Cc2cccc(Oc3ccccc3)c2)CC1	23µM*	8%	-13%	3%	?
CCCNC(=O)C1(C)CCCN(Cc2ccc(-c3ccccc3)cc2)C1 (centres undefined)	6.5µM*	.	.	.	5.8µM*
CCNC(=O)C1(C)CCCN(Cc2cccc(Oc3ccccc3)c2)C1 (centres undefined)	18µM*	.	.	.	21µM*
CCCNC(=O)C1(C)CCCN(Cc2c3ccccc3nn2C)C1 (centres undefined)	21µM*	.	.	.	21µM*
c1ccc(-n2ncc3cccnc32)cc1	4%	-8%	-21%	1%	-9%
CC(=O)NCCc1ccc(C(=O)COC(=O)c2cccn2C)cc1	-2%	1%	.	1%	-19%
O=C(NCc1n[nH]c(=S)n1-c1ccc(F)cc1)c1ccc(S(=O)(=O)N2CCOCC2)cc1	-6%	6%	2%	-5%	-12%
CC(=O)COc1ccc2c(c1C)O/C(=C\c1ccco1)C2=O	?	-16%	-71%	.	-28%
O=C(O)CCCNS(=O)(=O)c1ccccc1	-3%	-2%	-11%	4%[56.1 µM]	-10%
COCCNC(=O)C1(C)CCCN(C(=O)COc2ccccc2)C1 (centres undefined)	21µM*	.	.	.	1.8µM*

Single records, as listed above.
Results for COc1ccc(CN(C)CC(=O)NC(=O)NC2CCCCC2)cc1 = DT40 TDP1 CPT: ?; uPA surface inh: 1%; miR-21 reporter: .; TDP1 block: 1%; TDP1 cell noCPT: ?
Results for O=C(COc1ccc([N+](=O)[O-])cc1)NNC(=O)c1cccs1 = DT40 TDP1 CPT: -1%; uPA surface inh: 2%; miR-21 reporter: 0%; TDP1 block: 1%; TDP1 cell noCPT: -15%

Reformatted comma-delimited: entries from further up
SMILES,DT40 TDP1 CPT,uPA surface inh,miR-21 reporter,TDP1 block,TDP1 cell noCPT
c1ccc(-n2ncc3cccnc32)cc1,4%,-8%,-21%,1%,-9%
O=C(NCc1n[nH]c(=S)n1-c1ccc(F)cc1)c1ccc(S(=O)(=O)N2CCOCC2)cc1,-6%,6%,2%,-5%,-12%
CC(=O)COc1ccc2c(c1C)O/C(=C\c1ccco1)C2=O,?,-16%,-71%,.,-28%
